# Data from patent US7112341B1, “Pulmonary administration of dry powder formulations for treating infertility” (Nektar Therapeutics, priority 1999, dated 2006).
# Several values for one entry are separate records, joined by “and”; a condition that tells them apart may be missing. Identical values can stand only once.
# Assays:
# Type in all cases: in vivo
# [1] = Pharmacokinetics of uFSH following pulmonary and subcutaneous administration in cynomolgus monkeys
# [2] = tested on: Hypophysectomized immature female rats; assay: Steelman/Pohley rat ovarian weight gain assay (ovarian and uterine weight)
# [3] = Pharmacokinetics of pulmonary and SC hFSH variant and SC uFSH in cynomolgus monkeys; conditions: for Serum concentration of immunoreactive rFSH variant / FSH: subcutaneous 2 μg/kg; for AUC0–72hr / AUC0–∞ / CMax / Half-Life / TMax: subcutaneous dose 2 μg/kg
# [4] = 0.1 μg/day SC for 4 days, hypophysectomized immature female rats
substance,measurement,setting,value
"uFSH: FSH derived from human urine (Vitro Diagnostics, Inc.); mixture of hFSH and hFSH analogs",Serum concentration of immunoreactive FSH,"[1]; PUL 37.2 ± 3.9 μg/kg, 0.5 h, mean",0.86 mIU/mL
same,Serum concentration of immunoreactive FSH,"[1]; PUL 37.2 ± 3.9 μg/kg, 0.75 h, individual animals",3.8 mIU/mL and BQL (3×) and 6.6 mIU/mL
same,Serum concentration of immunoreactive FSH,"[1]; PUL 37.2 ± 3.9 μg/kg, 0.75 h, mean",2.1 mIU/mL
same,Serum concentration of immunoreactive FSH,"[1]; PUL 37.2 ± 3.9 μg/kg, 1.25 h, individual animals",57.6 mIU/mL and BQL (2×) and 31.0 mIU/mL and 4.7 mIU/mL
same,Serum concentration of immunoreactive FSH,"[1]; PUL 37.2 ± 3.9 μg/kg, 1.25 h, mean",18.7 mIU/mL
same,Serum concentration of immunoreactive FSH,"[1]; PUL 37.2 ± 3.9 μg/kg, 3.25 h, individual animals",32.7 mIU/mL and 10.4 mIU/mL and 50.1 mIU/mL and 12.2 mIU/mL and 13.4 mIU/mL
same,Serum concentration of immunoreactive FSH,"[1]; PUL 37.2 ± 3.9 μg/kg, 3.25 h, mean",23.8 mIU/mL
same,Serum concentration of immunoreactive FSH,"[1]; PUL 37.2 ± 3.9 μg/kg, 6.25 h, individual animals",69.3 mIU/mL and 22.7 mIU/mL and 85.2 mIU/mL and 23.7 mIU/mL and 29.0 mIU/mL
same,Serum concentration of immunoreactive FSH,"[1]; PUL 37.2 ± 3.9 μg/kg, 6.25 h, mean",46.0 mIU/mL
same,Serum concentration of immunoreactive FSH,"[1]; PUL 37.2 ± 3.9 μg/kg, 9.25 h, individual animals",82.4 mIU/mL and 30.6 mIU/mL and 132.8 mIU/mL and 33.8 mIU/mL and 36.8 mIU/mL
same,Serum concentration of immunoreactive FSH,"[1]; PUL 37.2 ± 3.9 μg/kg, 9.25 h, mean",63.3 mIU/mL
same,Serum concentration of immunoreactive FSH,"[1]; PUL 37.2 ± 3.9 μg/kg, 12.25 h, individual animals",72.5^(2) mIU/mL and 36.0^(2) mIU/mL and 155.0^(2) mIU/mL and 36.7^(2) mIU/mL and 39.8^(2) mIU/mL
same,Serum concentration of immunoreactive FSH,"[1]; PUL 37.2 ± 3.9 μg/kg, 12.25 h, mean",68.0 mIU/mL
same,Serum concentration of immunoreactive FSH,"[1]; PUL 37.2 ± 3.9 μg/kg, 24.25 h, individual animals",55.4^(2) mIU/mL and 32.7^(2) mIU/mL and 94.6^(2) mIU/mL and 30.4^(2) mIU/mL and 36.6^(2) mIU/mL
same,Serum concentration of immunoreactive FSH,"[1]; PUL 37.2 ± 3.9 μg/kg, 24.25 h, mean",49.9 mIU/mL
same,Serum concentration of immunoreactive FSH,"[1]; PUL 37.2 ± 3.9 μg/kg, 48.25 h, individual animals",29.3^(2) mIU/mL and 17.5^(2) mIU/mL and 47.8^(2) mIU/mL and 15.5^(2) mIU/mL and 14.2^(2) mIU/mL
same,Serum concentration of immunoreactive FSH,"[1]; PUL 37.2 ± 3.9 μg/kg, 48.25 h, mean",24.9 mIU/mL
same,Serum concentration of immunoreactive FSH,"[1]; PUL 37.2 ± 3.9 μg/kg, 72.25 h, individual animals",14.1^(2) mIU/mL and 9.2^(2) mIU/mL and 19.4^(2) mIU/mL and 8.6^(2) mIU/mL and 6.0^(2) mIU/mL
same,Serum concentration of immunoreactive FSH,"[1]; PUL 37.2 ± 3.9 μg/kg, 72.25 h, mean",11.5 mIU/mL
same,Bioavailability (%),"[1]; SC 2 μg/kg (reference route), mean",100%
same,Serum concentration of immunoreactive FSH,"[1]; SC 2 μg/kg, 0 h (predose), individual animals",BQL^(1) and BQL (4×)
same,Serum concentration of immunoreactive FSH,"[1]; SC 2 μg/kg, 0 h (predose), mean",0 mIU/mL
same,Serum concentration of immunoreactive FSH,"[1]; SC 2 μg/kg, 1 h, individual animals",5.3 mIU/mL (2×) and 4.6 mIU/mL and BQL (2×)
same,Serum concentration of immunoreactive FSH,"[1]; SC 2 μg/kg, 1 h, mean",3.0 mIU/mL
same,Serum concentration of immunoreactive FSH,"[1]; SC 2 μg/kg, 3 h, individual animals",20.9 mIU/mL and 63.7 mIU/mL and 28.2 mIU/mL and 65.5 mIU/mL and 36.3 mIU/mL
same,Serum concentration of immunoreactive FSH,"[1]; SC 2 μg/kg, 3 h, mean",42.9 mIU/mL
same,Serum concentration of immunoreactive FSH,"[1]; SC 2 μg/kg, 6 h, individual animals",25.4 mIU/mL and 75.7 mIU/mL and 28.9 mIU/mL and 97.1 mIU/mL and 68.5 mIU/mL
same,Serum concentration of immunoreactive FSH,"[1]; SC 2 μg/kg, 6 h, mean",59.1 mIU/mL
same,Serum concentration of immunoreactive FSH,"[1]; SC 2 μg/kg, 9 h, individual animals",20.2 mIU/mL and 58.3 mIU/mL and 31.5 mIU/mL and 71.3 mIU/mL and 76.0 mIU/mL
same,Serum concentration of immunoreactive FSH,"[1]; SC 2 μg/kg, 9 h, mean",51.5 mIU/mL
same,Serum concentration of immunoreactive FSH,"[1]; SC 2 μg/kg, 12 h, individual animals",18.7^(2) mIU/mL and 46.8^(2) mIU/mL and 33.4^(2) mIU/mL and 55.0^(2) mIU/mL and 54.3^(2) mIU/mL
same,Serum concentration of immunoreactive FSH,"[1]; SC 2 μg/kg, 12 h, mean",41.6 mIU/mL
same,Serum concentration of immunoreactive FSH,"[1]; SC 2 μg/kg, 24 h, individual animals",20.7^(2) mIU/mL and 36.8^(2) mIU/mL and 29.1^(2) mIU/mL and 38.0^(2) mIU/mL and 40.5^(2) mIU/mL
same,Serum concentration of immunoreactive FSH,"[1]; SC 2 μg/kg, 24 h, mean",33.0 mIU/mL
same,Serum concentration of immunoreactive FSH,"[1]; SC 2 μg/kg, 48 h, individual animals",15.7^(2) mIU/mL and 20.8^(2) mIU/mL and 17.4^(2) mIU/mL (2×) and 14.5^(2) mIU/mL
same,Serum concentration of immunoreactive FSH,"[1]; SC 2 μg/kg, 48 h, mean",17.2 mIU/mL
same,Serum concentration of immunoreactive FSH,"[1]; SC 2 μg/kg, 72 h, individual animals",9.2^(2) mIU/mL and 9.8^(2) mIU/mL and 8.4^(2) mIU/mL and 8.6^(2) mIU/mL and 5.8^(2) mIU/mL
same,Serum concentration of immunoreactive FSH,"[1]; SC 2 μg/kg, 72 h, mean",8.4 mIU/mL
same,AUC0–t,"[1]; SC 2 μg/kg, individual animals",1197.1 mIU*h/mL and 2198.4 mIU*h/mL and 1544.4 mIU*h/mL and 2294.2 mIU*h/mL and 2078.1 mIU*h/mL
same,AUC0–∞,"[1]; SC 2 μg/kg, individual animals",2013.4 mIU*h/mL and 2594.5 mIU*h/mL and 1932.5 mIU*h/mL and 2566.8 mIU*h/mL and 2231.3 mIU*h/mL
same,CMax,"[1]; SC 2 μg/kg, individual animals",25.4 mIU/mL and 75.7 mIU/mL and 33.4 mIU/mL and 97.1 mIU/mL and 76.0 mIU/mL
same,Half-Life,"[1]; SC 2 μg/kg, individual animals",55.5 h and 26.6 h and 29.8 h and 22.3 h and 18.1 h
same,TMax,"[1]; SC 2 μg/kg, individual animals",6.0 h (3×) and 12.0 h and 9.0 h
same,AUC0–t,"[1]; SC 2 μg/kg, mean",1862.4 mIU*h/mL and 1862 mIU*h/mL
same,AUC0–∞,"[1]; SC 2 μg/kg, mean",2267.7 mIU*h/mL and 2268 mIU*h/mL
same,CMax,"[1]; SC 2 μg/kg, mean",61.5 mIU/mL
same,Half-Life,"[1]; SC 2 μg/kg, mean",26.4 h
same,TMax,"[1]; SC 2 μg/kg, mean",7.8 h
same,terminal half-life,"[1]; monkey, pulmonary similar to subcutaneous",approximately 24 hours
same,time of peak serum concentrations,"[1]; monkey, pulmonary, mannitol/citrate formulation",approximately 10 hours
same,Ov wt (ovarian weight),[2]; [4],31.5 mg
same,Ut wt (uterine weight),[2]; [4],33.0 mg
same,Ov wt (ovarian weight),[2]; 0.3 μg/day SC for 4 days,35.0 mg
same,Ut wt (uterine weight),[2]; 0.3 μg/day SC for 4 days,62.0 mg
same,Ov wt (ovarian weight),[2]; 1 μg/day SC for 4 days,49.2 mg
same,Ut wt (uterine weight),[2]; 1 μg/day SC for 4 days,78.8 mg
same,Ov wt (ovarian weight),[2]; 3 μg/day SC for 4 days,41.2 mg
same,Ut wt (uterine weight),[2]; 3 μg/day SC for 4 days,82.7 mg
same,Serum concentration of immunoreactive rFSH variant / FSH,"[3]; 0 h, individual animals",BQL
same,Serum concentration of immunoreactive rFSH variant / FSH,"[3]; 0 h, mean",0 ng/mL
same,Serum concentration of immunoreactive rFSH variant / FSH,"[3]; 1 h, individual animals",0.77 ng/mL and 0.67 ng/mL and 0.73 ng/mL and 2.93 ng/mL and 1.23 ng/mL
same,Serum concentration of immunoreactive rFSH variant / FSH,"[3]; 1 h, mean",1.27 ng/mL
same,Serum concentration of immunoreactive rFSH variant / FSH,"[3]; 3 h, individual animals",5.05 ng/mL and 4.38 ng/mL and 3.57 ng/mL and 6.71 ng/mL and 3.55 ng/mL
same,Serum concentration of immunoreactive rFSH variant / FSH,"[3]; 3 h, mean",4.65 ng/mL
same,Serum concentration of immunoreactive rFSH variant / FSH,"[3]; 6 h, individual animals",6.31 ng/mL and 4.52 ng/mL and 4.76 ng/mL and 6.53 ng/mL and 3.60 ng/mL
same,Serum concentration of immunoreactive rFSH variant / FSH,"[3]; 6 h, mean",5.14 ng/mL
same,Serum concentration of immunoreactive rFSH variant / FSH,"[3]; 9 h, individual animals",6.30 ng/mL and 4.28 ng/mL and 4.14 ng/mL and 4.85 ng/mL and 3.55 ng/mL
same,Serum concentration of immunoreactive rFSH variant / FSH,"[3]; 9 h, mean",4.62 ng/mL
same,Serum concentration of immunoreactive rFSH variant / FSH,"[3]; 12 h, mean",3.76 ng/mL
same,Serum concentration of immunoreactive rFSH variant / FSH,"[3]; 24 h, mean",2.84 ng/mL
same,Serum concentration of immunoreactive rFSH variant / FSH,"[3]; 48 h, mean",1.32 ng/mL
same,Serum concentration of immunoreactive rFSH variant / FSH,"[3]; 72 h, individual animals",BQL (2×) and 0.86 ng/mL and 0.61 ng/mL and 0.70 ng/mL
same,Serum concentration of immunoreactive rFSH variant / FSH,"[3]; 72 h, mean",0.43 ng/mL
same,AUC0–72hr,"[3]; Mean, N=5",159.1 ng·h/mL
same,AUC0–∞,"[3]; Mean, N=5",185.7 ng·h/mL
same,CMax,"[3]; Mean, N=5",5.18 ng/mL
same,Half-Life,"[3]; Mean, N=5",23.22 h
same,TMax,"[3]; Mean, N=5",5.40 h
same,CMax,[3]; individual monkeys,6.31 ng/mL and 4.52 ng/mL and 4.76 ng/mL and 6.71 ng/mL and 3.60 ng/mL
same,Half-Life,[3]; individual monkeys,18.66 h and 18.90 h and 27.79 h and 20.06 h and 43.51 h
same,TMax,[3]; individual monkeys,6 hr (4×) and 3 hr
same,AUC0–72hr,"[3]; individual monkeys (Subject ID 8717, 8720, 8791, 8794, 8795), serum, IRMA",159.6 ng·h/mL and 146.7 ng·h/mL and 168.4 ng·h/mL and 168.1 ng·h/mL and 152.6 ng·h/mL
same,AUC0–∞,"[3]; individual monkeys, serum, IRMA",169.3 ng·h/mL and 161.6 ng·h/mL and 204.3 ng·h/mL and 178.4 ng·h/mL and 215.1 ng·h/mL
